Cyclic peptide permeability, from CycPeptMPDB

Values of Townsend et al. 2020, doi:10.26434/chemrxiv.13335941.v1, as listed in CycPeptMPDB.

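The data file gives no further conditions (lipid, pH, time, direction or concentration), and values from different papers need not be comparable. The list need not hold all peptides of the study. Entries at the database's floor value (log10 P of -10) are not listed.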

PAMPA is the parallel artificial membrane permeability assay, which has no cells and reads passive diffusion. P is given in units of 10^-6 cm/s (from log10 values with two decimals); larger means faster passage.

SMILES,PAMPA (10^-6 cm/s)
CC(C)C[C@@H]1NC(=O)[C@H](C)NC(=O)[C@H](Cc2ccccc2)NC(=O)[C@H](CC(C)C)N(C)C(=O)[C@H]2CCCN2C(=O)CN(Cc2ccccc2)C1=O,1.5
CC(C)C[C@@H]1NC(=O)[C@H](CC(C)C)N(C)C(=O)[C@H](C)N(C)C(=O)[C@@H]2CCCN2C(=O)[C@H](Cc2ccccc2)NC(=O)[C@H](CC(C)C)N(C)C(=O)[C@@H]2CCCN2C1=O,6.9
CC(C)C[C@@H]1C(=O)N(Cc2ccccc2)CC(=O)N2CCC[C@@H]2C(=O)N[C@H](CC(C)C)C(=O)N[C@@H](Cc2ccccc2)C(=O)N2CCC[C@H]2C(=O)N(C)[C@H](C)C(=O)N1C,2.9
CCCN1CC(=O)N(C)[C@H](CC(C)C)C(=O)N(Cc2ccccc2)CC(=O)N2CCC[C@H]2C(=O)N(C)[C@@H](CC(C)C)C(=O)N[C@@H](Cc2ccccc2)C(=O)N2CCC[C@@H]2C1=O,8.1
CC(C)C[C@@H]1C(=O)N(Cc2ccccc2)CC(=O)N2CCC[C@@H]2C(=O)N(Cc2ccccc2)CC(=O)N[C@@H](Cc2ccccc2)C(=O)N2CCC[C@@H]2C(=O)N(C)[C@H](C)C(=O)N1C,0.14
CC(C)C[C@@H]1NC(=O)[C@@H](CC(C)C)N(C)C(=O)[C@@H](C)NC(=O)[C@H](Cc2ccccc2)NC(=O)[C@@H](CC(C)C)NC(=O)[C@H]2CCCN2C1=O,5.8
CC(C)C[C@@H]1C(=O)N[C@H](CC(C)C)C(=O)N2CCC[C@H]2C(=O)N(C)[C@H](CC(C)C)C(=O)N[C@@H](Cc2ccccc2)C(=O)N2CCC[C@@H]2C(=O)N(C)[C@@H](C)C(=O)N1C,2.2
CC(C)C[C@@H]1NC(=O)[C@H](CC(C)C)N(C)C(=O)C[C@H](Cc2ccccc2)NC(=O)[C@@H]2CCCN2C(=O)[C@H](Cc2ccccc2)NC(=O)[C@H](CC(C)C)N(C)C(=O)[C@H]2CCCN2C1=O,4.3
CC(C)C[C@@H]1C(=O)N(C)[C@H](CC(C)C)C(=O)N2CCC[C@H]2C(=O)N[C@H](CC(C)C)C(=O)N[C@@H](Cc2ccccc2)C(=O)N2CCC[C@H]2C(=O)N(C)[C@H](C)C(=O)N1C,7.9
CC(C)C[C@@H]1C(=O)N[C@@H](Cc2ccccc2)C(=O)N[C@@H](C)C(=O)N[C@H](CC(C)C)C(=O)N[C@H](CC(C)C)C(=O)N2CCC[C@H]2C(=O)N1C,0.78
CC(C)C[C@@H]1C(=O)N2CCC[C@H]2C(=O)N(C)[C@H](CC(C)C)C(=O)N[C@@H](Cc2ccccc2)C(=O)N[C@H](C)C(=O)N(Cc2ccccc2)CC(=O)N1C,3.6
CC(C)C[C@H]1NC(=O)[C@H](C)N(C)C(=O)[C@@H]2CCCN2C(=O)[C@H](Cc2ccccc2)NC(=O)[C@@H](CC(C)C)NC(=O)[C@@H]2CCCN2C(=O)C[C@H](Cc2ccccc2)NC1=O,0.22
CCCN1CC(=O)N[C@H](CC(C)C)C(=O)N(C)[C@H](CC(C)C)C(=O)N2CCC[C@H]2C(=O)N(C)[C@H](CC(C)C)C(=O)N[C@@H](Cc2ccccc2)C(=O)N2CCC[C@H]2C1=O,5.9
CC(C)C[C@@H]1NC(=O)[C@@H]2CCCN2C(=O)C[C@H](Cc2ccccc2)NC(=O)[C@@H](CC(C)C)N(C)C(=O)C[C@H](Cc2ccccc2)NC(=O)[C@@H]2CCCN2C(=O)[C@H](Cc2ccccc2)NC1=O,4.3
CC(C)C[C@H]1C(=O)N[C@@H](Cc2ccccc2)C(=O)N2CCC[C@@H]2C(=O)N(C)[C@H](C)C(=O)N(Cc2ccccc2)CC(=O)N[C@@H](Cc2ccccc2)CC(=O)N2CCC[C@H]2C(=O)N1C,3.4
CCCN1CC(=O)N(C)[C@@H](CC(C)C)C(=O)N(C)[C@H](CC(C)C)C(=O)N2CCC[C@@H]2C(=O)N(C)[C@@H](CC(C)C)C(=O)N[C@@H](Cc2ccccc2)C(=O)N2CCC[C@@H]2C1=O,7.8
CC(C)C[C@@H]1NC(=O)C[C@H](Cc2ccccc2)NC(=O)[C@H]2CCCN2C(=O)[C@H](Cc2ccccc2)NC(=O)[C@@H](CC(C)C)NC(=O)[C@H]2CCCN2C(=O)[C@@H](CC(C)C)N(C)C1=O,2.9
CCCN1CC(=O)N[C@@H](CC(C)C)C(=O)N[C@H](CC(C)C)C(=O)N2CCC[C@@H]2C(=O)N(C)[C@H](CC(C)C)C(=O)N[C@@H](Cc2ccccc2)C1=O,8.5
CC(C)C[C@@H]1C(=O)N[C@H](CC(C)C)C(=O)N2CCC[C@@H]2C(=O)N(Cc2ccccc2)CC(=O)N[C@@H](Cc2ccccc2)C(=O)N[C@H](C)C(=O)N1C,2.2
CC(C)C[C@@H]1NC(=O)C[C@H](Cc2ccccc2)NC(=O)[C@H]2CCCN2C(=O)[C@H](Cc2ccccc2)NC(=O)[C@H](CC(C)C)N(C)C(=O)[C@@H]2CCCN2C(=O)[C@@H](CC(C)C)NC1=O,1.6
CC(C)C[C@@H]1C(=O)N(C)[C@@H](CC(C)C)C(=O)N2CCC[C@@H]2C(=O)N(C)[C@@H](CC(C)C)C(=O)N[C@@H](Cc2ccccc2)C(=O)N2CCC[C@@H]2C(=O)N[C@H](C)C(=O)N1C,3.2
CC(C)C[C@@H]1NC(=O)[C@H]2CCCN2C(=O)CN(Cc2ccccc2)C(=O)[C@@H](CC(C)C)N(C)C(=O)[C@H](C)NC(=O)[C@H](Cc2ccccc2)NC1=O,0.79
CC(C)C[C@H]1C(=O)N(Cc2ccccc2)CC(=O)N2CCC[C@@H]2C(=O)N(Cc2ccccc2)CC(=O)N[C@@H](Cc2ccccc2)C(=O)N(C)[C@H](C)C(=O)N1C,3.5
CCCN1CC(=O)N[C@H](CC(C)C)C(=O)N[C@@H](CC(C)C)C(=O)N2CCC[C@@H]2C(=O)N[C@H](CC(C)C)C(=O)N[C@@H](Cc2ccccc2)C(=O)N2CCC[C@H]2C1=O,0.11

A selection of 3 entries from above:

SMILES,PAMPA (10^-6 cm/s)
CC(C)C[C@H]1C(=O)N(Cc2ccccc2)CC(=O)N2CCC[C@@H]2C(=O)N(Cc2ccccc2)CC(=O)N[C@@H](Cc2ccccc2)C(=O)N(C)[C@H](C)C(=O)N1C,3.5
CC(C)C[C@@H]1NC(=O)[C@H](CC(C)C)N(C)C(=O)[C@H](C)N(C)C(=O)[C@@H]2CCCN2C(=O)[C@H](Cc2ccccc2)NC(=O)[C@H](CC(C)C)N(C)C(=O)[C@@H]2CCCN2C1=O,6.9
CCCN1CC(=O)N(C)[C@H](CC(C)C)C(=O)N(Cc2ccccc2)CC(=O)N2CCC[C@H]2C(=O)N(C)[C@@H](CC(C)C)C(=O)N[C@@H](Cc2ccccc2)C(=O)N2CCC[C@@H]2C1=O,8.1